Reference: patent US20060252677A1 (published 2006)

Target: T1, fusion protein of Protein-X (novel PSD, clone hj02537) with a 6x His-tag (human, UniProt Q5T2T1 1-576)
T1 construct: Used as crude soluble E. coli extract (1% Triton X extraction buffer) in the Overlay assay; fusion band approx. 65.8 kDa; also called 6x His-tag fusion protein of the novel PSD; pDEST17/hj02537 #11 product; not shown: N-terminal 6x His-tag and linker encoded by vector pDEST17
T1 sequence: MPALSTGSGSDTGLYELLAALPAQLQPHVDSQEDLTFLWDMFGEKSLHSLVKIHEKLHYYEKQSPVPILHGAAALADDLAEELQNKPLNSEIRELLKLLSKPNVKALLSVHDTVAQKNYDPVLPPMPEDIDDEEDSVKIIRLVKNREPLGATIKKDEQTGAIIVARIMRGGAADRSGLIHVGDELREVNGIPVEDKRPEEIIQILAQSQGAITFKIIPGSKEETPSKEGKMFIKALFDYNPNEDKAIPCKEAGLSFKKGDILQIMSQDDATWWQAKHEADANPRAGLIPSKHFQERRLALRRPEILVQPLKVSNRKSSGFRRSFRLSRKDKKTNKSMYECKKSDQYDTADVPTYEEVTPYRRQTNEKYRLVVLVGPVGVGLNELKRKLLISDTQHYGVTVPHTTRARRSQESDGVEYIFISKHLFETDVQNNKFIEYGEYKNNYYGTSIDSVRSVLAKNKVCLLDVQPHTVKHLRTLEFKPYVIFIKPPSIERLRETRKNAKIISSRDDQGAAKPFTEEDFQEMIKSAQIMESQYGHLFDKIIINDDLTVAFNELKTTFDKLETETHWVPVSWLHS
Test: Overlay method on blotted GST, detection with anti-His antibody
Method: Subsequently, 3 ml of 1 mM PMSF/TBS-T was added to 20 μl of sample containing Protein-X, prepared as described above and 40 μl of extraction buffer, or to 60 μl of sample containing the Protein-X mutant prepared as described above, to make a mixture. As a control, a mixture obtained by adding 3 ml of 1 mM PMSF/TBS-T to 60 μl of extraction buffer was used. Each mixture was used and allowed to react with each of the transfer membranes for 2 hours at 4° C. to bind thereto. Thereafter, a 5-minute wash with TBS-T was performed three times at room temperature, and the membranes were blocked again with 5% skim milk/TBS-T for 1 hour at room temperature. After blocking, a mouse anti-His antibody (Amersham Pharmacia Biotech) was diluted 1000-fold with 5% skim milk/TBS-T and added; and this composition was allowed to react for 1 hour at room temperature. After the reaction, the transfer membranes were washed using TBS-T for 10 minutes at room temperature; the wash was performed three times; then a secondary antibody (anti-mouse IgG antibody-HRP) (Cell Signaling) was diluted 3000-fold with 5% skim milk/TBS-T, then added and allowed to react for 1 hour at room temperature. After that, a 10-minute wash with TBS-T was performed three times at room temperature. Thereafter, a signal was detected using the ECL kit and Hyper film.

B1: GST (glutathione S-transferase) expressed alone from pGEX-4T-3 (other, UniProt P08515 1-218, looked up)
chain: MSPILGYWKIKGLVQPTRLLLEYLEEKYEEHLYERDEGDKWRNKKFELGLEFPNLPYYIDGDVKLTQSMAIIRYIADKHNMLGGCPKERAEISMLEGAVLDIRYGVSRIAYSKDFETLKVDFLSKLPEMLKMFEDRLCHKTYLNGDHVTHPDFMLYDALDVVLYMDPMCLDAFPKLVCFKKRIEAIPQIDKYLKSSKYIAWPLQGWQATFGGGDHPPK
notes: Negative control on the blot in the Overlay assay
B1: no binding.
